The assay has as its system rat anti-collagen IgG1 antibodies. Description: CIA model: rat anti-collagen IgG1 antibodies in serum at day 21. The format is in vivo, Lewis rat. The settings on record: day 21 serum, reference group (Dexamethasone or GSK620), individual animals.

Structures are written as SMILES.

The record followed here is patent US20260000642A1 (Tay Therapeutics Limited, priority 2022, published 2026).

Take `C[C@@H]1C[C@H]2[C@@H]3CCC4=CC(=O)C=C[C@]4(C)[C@@]3(F)[C@@H](O)C[C@]2(C)[C@@]1(O)C(=O)CO` [dexamethasone]: the “Final Rat Anti-Collagen IgG1 Antibody Con.” value is 11736.83 units/ml.
